Test results published in patent US11596632B2, “JAK1 pathway inhibitors for the treatment of gastrointestinal disease” (Incyte Corporation, priority 2018, dated 2023).

Sequences of proteins named here, by UniProt entry; tags and fusion partners are left off. Residues count along the entry.
UniProt P23458, 837-1142: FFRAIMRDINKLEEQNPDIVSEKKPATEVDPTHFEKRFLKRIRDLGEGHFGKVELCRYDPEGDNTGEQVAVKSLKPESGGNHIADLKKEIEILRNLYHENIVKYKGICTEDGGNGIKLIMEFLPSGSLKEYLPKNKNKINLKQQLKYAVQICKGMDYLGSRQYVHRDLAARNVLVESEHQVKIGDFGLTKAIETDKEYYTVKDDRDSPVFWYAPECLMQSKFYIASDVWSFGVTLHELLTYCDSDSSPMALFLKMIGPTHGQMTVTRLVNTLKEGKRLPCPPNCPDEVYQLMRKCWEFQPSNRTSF

Target: human JAK1 (a.a. 837-1142) (Homo sapiens (Human), UniProt P23458)
Assay: In vitro JAK kinase assay (HTRF), JAK1
Format: biochemical
Settings: 1 mM ATP
Experimental: The catalytic activity of JAK1, JAK2 or JAK3 was assayed by measuring the phosphorylation of a biotinylated peptide. The phosphorylated peptide was detected by homogenous time resolved fluorescence (HTRF). […] Reactions are carried out at room temperature for 1 hour and then stopped with 20 μL 45 mM EDTA, 300 nM SA-APC, 6 nM Eu-Py20 in assay buffer (Perkin Elmer, Boston, Mass.). Binding to the Europium labeled antibody takes place for 40 minutes and HTRF signal was measured on a Fusion plate reader (Perkin Elmer, Boston, Mass.).

IC50: < 0.01 µM
Structure (SMILES): CN(C)Cc1cc(F)cc(OC2CCN(CC(CC#N)n3cc(-c4ncnc5[nH]ccc45)cn3)CC2)c1 (single isomer, unassigned) [Compound 14, 4-(4-{3-[(dimethylamino)methyl]-5-fluorophenoxy}piperidin-1-yl)-3-[4-(7H-pyrrolo[2,3-d]pyrimidin-4-yl)-1H-pyrazol-1-yl]butanenitrile]
